# Compound activity: PubChem BioAssay, Broad Institute
# RAD54 branch: blocks human RAD54 Holliday junction branch migration. Q92698. FAM/BHQ fluorescence. inhibition, % at 10.4 µM. 360,000 tested, 0.14% active. AID 602329;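 active = mean normalized replicate activity at least 40 and at least half of replicates scoring 40 or more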;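 note: 0% = median of neutral control wells and 100% = median of positive control wells; inhibitors cause a drop in the FAM fluorescence signal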
# AF4-AF9 inh: blocks AF4 peptide binding to human AF9; AlphaScreen, biotin-AF4 peptide binding to FLAG-AF9; AID 651704; inhibition, % at 10 µM; 350,000 tested, 0.47% active; P42568;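 active = every replicate reaching a set inhibition limit, whatever the replicate mean, cut at about 25% in these data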;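 note: 0% = plate neutral control median and 100% = total signal loss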
# RAD52 anneal inh: RAD52 (human) annealing inhibition | P43351 | AID 651710 | 360,000 tested, 0.46% active | inhibition, % at 18.7 µM | recombinant RAD52 DNA annealing, FRET fluorescence;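 active = every replicate showing at least 50% inhibition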
# SIRT5 block: inhibitors of human sirtuin-5 desuccinylase; Q9NXA8; Purified SirT5, succinyl-peptide AMC, trypsin-coupled fluorescence; inhibition, % at 15 µM; 330,000 tested, 1.1% active; in the data active = inhibition above about 15%
# UUG fidelity: modulators of start codon recognition fidelity in yeast; AID 602363; hit rate 0.13% among 350,000; activity score, % at 18.7 µM; S. cerevisiae UUG-firefly luciferase reporter, luminescence/redox ratio;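 active = replicate mean at a twofold rise or more, about +100% in these data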;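 note: firefly luciferase made from a UUG start codon reports start codon fidelity; reporter light over untreated wells divided by growth signal over untreated wells; some hits fall short of that in this replicate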
# E-sel inducer: induces E-selectin expression in human endothelial cells; 260,000 tested, 0.37% active; AID 686992; HUVEC E-selectin immunofluorescence imaging; normalized: neutral wells 0, TNF-alpha wells 100; P16581; activation, % at 7.58 µM;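 active = mean E-selectin-positive cell signal at least 10% of the positive control, reached in at least 60% of replicates, without over 20% cell loss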
#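 Material: HUVEC primary endothelial cells; Amount: 3,000 cells per well; Dosing: single concentration; Medium: EGM-2 growth medium on 0.1% gelatin-coated wells; Read-out basis: percent E-selectin-positive cells; Signal: immunofluorescence imaging; Control set: TNF-alpha, DMSO.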
# Starred values were filed as active, the others as inactive; x = no result given. Most compounds without a hit are left out; they make up all but 1.8% or so of the library.
nr | smiles | RAD54 branch | AF4-AF9 inh | RAD52 anneal inh
1 | Cc1ccc(C(=O)NCC(=O)N2CCCC(C(F)(F)F)C2)s1 (stereo not given) | x | 2 | -13
2 | O=C(NCC(=O)N1CCCC(C(F)(F)F)C1)c1cccs1 (stereo not given) | 13 | 33* | -3
3 | CCCN(Cc1nnc(-c2ccccc2Cl)o1)C(=O)c1cc(S(=O)(=O)N2CCOCC2)ccc1F | -6 | -1 | -7
4 | CCCN(Cc1nnc(-c2cccs2)o1)C(=O)c1cc(S(=O)(=O)N2CCOCC2)ccc1C | -4 | 1 | -13
5 | O=C(c1ccc(F)cc1)N1C[C@@H]2N[C@H](C1)C2c1ccc(-c2cncnc2)cc1 (stereo not given in full) | x | -7 | 15
6 | O=C(c1ccc(F)cc1)N1C[C@@H]2N[C@H](C1)C2c1ccc(-c2ccc(F)cc2)cc1 (stereo not given in full) | x | -5 | 50*
7 | COc1cccc(-c2ccc(C3[C@@H]4CN(C(=O)c5ccc(F)cc5)C[C@H]3N4)cc2)c1 (stereo not given in full) | x | 4 | 52*
8 | O=C(Nc1cccc(Cl)c1)N[C@@H]1CC[C@H](CCNC(=O)C2CCOCC2)O[C@H]1CO | -2 | -1 | 3
9 | O=C(c1ccccc1)c1coc2ccc(O)c(Cl)c12 | 3 | 10 | -2
10 | Cc1ccc(C(=O)c2coc3ccc(O)c(Cl)c23)cc1 | 9 | x | x
11 | O=C(C[C@@H]1C=C[C@@H](NC(=O)CC2CC2)[C@H](CO)O1)NCC(F)(F)F | 3 | -2 | 6
12 | COCC#Cc1cnc2c(c1)C(=O)N([C@H](C)CO)C[C@@H](C)[C@@H](CN(C)C(=O)Nc1cc(F)ccc1F)O2 | -1 | -3 | -13
13 | c1ccc(-c2ccccc2OCCOCCN2CCNCC2)cc1 | x | -1 | 8
14 | COc1ccc(CN(C)C[C@H]2Oc3ccc(NC(=O)c4ccncc4)cc3CC(=O)N([C@H](C)CO)C[C@H]2C)cc1 | -1 | -1 | 0
15 | COc1ccc(NC(=O)N(C)C[C@H]2Oc3ccc(NC(=O)C4CC4)cc3CC(=O)N([C@H](C)CO)C[C@H]2C)cc1 | -15 | -12 | 16

nr | SIRT5 block | UUG fidelity | E-sel inducer
1 | -1 | x | 1
2 | 0 | -15 | -2
3 | 15* | -7 | x
4 | -6 | -20 | 7
5 | -2 | x | 0
6 | 5 | x | 0
7 | 0 | x | 0
8 | -3 | -5 | 0
9 | 22* | -6 | x
10 | x | -13 | x
11 | 0 | x | 0
12 | -20 | x | 1
13 | -1 | x | 39*
14 | -7 | x | 0
15 | -5.8* | 3 | 0

# Entries of single compounds as entered above:
# COc1ccc(CN(C)C[C@H]2Oc3ccc(NC(=O)c4ccncc4)cc3CC(=O)N([C@H](C)CO)C[C@H]2C)cc1 is listed as RAD54 branch = -1; AF4-AF9 inh = -1; RAD52 anneal inh = 0; SIRT5 block = -7; UUG fidelity = x; E-sel inducer = 0
# O=C(c1ccccc1)c1coc2ccc(O)c(Cl)c12 is listed as RAD54 branch = 3; AF4-AF9 inh = 10; RAD52 anneal inh = -2; SIRT5 block = 22*; UUG fidelity = -6; E-sel inducer = x

# More entries
nr | smiles | RAD54 branch | AF4-AF9 inh | RAD52 anneal inh
16 | COc1ccc(NC(=O)N(C)C[C@H]2Oc3ccc(NC(=O)c4ccncc4)cc3CC(=O)N([C@H](C)CO)C[C@H]2C)cc1 | -3 | -2 | 2
17 | Cc1ccc(CNC(=O)CCc2ccc(S(=O)(=O)NCC(C)C)cc2)cc1 | -3 | -1 | -4
18 | CCOC(=O)c1cccc(NC(=O)Nc2ccc3c(c2)C(=O)OC3)c1 | 4 | 2 | -15
19 | CCCS(=O)(=O)c1c(S(=O)(=O)CCC)c2c(N)cccn2c1C(=O)c1ccc(Br)cc1 | -4 | x | x
20 | CCCS(=O)(=O)c1c(S(=O)(=O)CCC)c2c(N)cccn2c1C(=O)c1ccc(OC)cc1 | x | 14 | -9
21 | CC=Cc1ccc2n(c1=O)C[C@H]1[C@H](CO)[C@@H](C(=O)NCCCN3CCOCC3)N(C)[C@@H]21 (mixture of isomers) | -3 | -20 | 6
22 | COc1ccc(C2/C=C\CN(Cc3ccncc3)CC(=O)N2Cc2ccc(F)cc2)cc1 (stereo not given) | 3 | 3 | -24
23 | COc1ccc(C2/C=C\CN(CC3CC3)CC(=O)N2Cc2ccc(F)cc2)cc1 (stereo not given) | -2 | 3 | -26
24 | c1ccc(C[C@H]2CN=C(Nc3ccccc3)N2CC2CCCC2)cc1 | x | 1 | -5
25 | c1ccc(C[C@H]2CN=C(Nc3ccccc3)N2CC2CCCCC2)cc1 | 3 | 0 | 1
26 | COc1ccc(-c2noc(Cn3cc(S(=O)(=O)N4CCCC4)ccc3=O)n2)cc1 | -6 | 1 | -23
27 | CCN(CCCNC(=O)C1CCC(=O)N1Cc1ccc(C)cc1)c1cccc(C)c1 (stereo not given) | -5 | x | -13
28 | CCN(CC)c1nc2c(c(=O)[nH]c(=O)n2C)n1Cc1ccccc1 | 0 | 1 | -4
29 | CCCC(=O)Nc1ccc(-c2cn3cccnc3n2)cc1 | x | 1 | -17
30 | CC(C)(C)CC(=O)Nc1ccc(-c2cn3cccnc3n2)cc1 | 6 | -8 | -12

nr | SIRT5 block | UUG fidelity | E-sel inducer
16 | -2 | -2 | 42*
17 | 29* | -11 | 1
18 | x | -9 | 61*
19 | x | -3 | x
20 | 16* | x | x
21 | 0 | x | 0
22 | 16* | -10 | 1
23 | 3 | -23 | 0
24 | 21* | x | 0
25 | 0 | -9 | 1
26 | 22* | -8 | 0
27 | 17* | -1 | x
28 | 102* | 3 | x
29 | -62 | x | 0
30 | -69 | -19 | 34*

# Remaining list, next part
nr | smiles | RAD54 branch | AF4-AF9 inh | RAD52 anneal inh
31 | CCOC(=O)C1C(c2cccs2)NC(=O)NC1(O)C(F)(F)F (stereo not given) | x | -2 | -6
32 | CCOC(=O)C1C(c2cccnc2)NC(=O)NC1(O)C(F)(F)F (stereo not given) | x | -1 | -3
33 | O=C(C[C@@H]1C[C@@H]2c3cc(NC(=O)C4CCC4)ccc3O[C@@H]2[C@@H](CO)O1)NCc1cccnc1 | -5 | -11 | 6
34 | COc1ccc(C2Nc3ccccc3C(=O)N2NS(C)(=O)=O)c(OC)c1 (stereo not given) | -5 | -3 | 1
35 | C[C@@H]1CN([C@@H](C)CO)C(=O)c2cccc(NC(=O)NC3CCCCC3)c2O[C@@H]1CN(C)Cc1ccc2c(c1)OCO2 | x | -1 | x
36 | COc1ccc(Cl)cc1S(=O)(=O)N1CCN=C1C | 4 | -5 | -7
37 | CC1=NCCN1S(=O)(=O)c1c(C(C)C)cc(C(C)C)cc1C(C)C | -2 | 1 | -10
38 | Cc1ccc(S(=O)(=O)N2CCC(C(=O)OCC(=O)N(Cc3ccccc3)C(C)C)CC2)cc1C | -6 | 0 | -15
39 | Cc1ccc(S(=O)(=O)N2CCC(C(=O)OCC(=O)N(C)Cc3ccccc3)CC2)cc1C | x | 1 | -6
40 | C[C@@H]1CN([C@@H](C)CO)S(=O)(=O)c2ccc(C#CCC3CCCC3)cc2O[C@H]1CN(C)C | 0 | 10 | -13
41 | COc1ccccc1/C=C/C1=NC(=C\C=C/c2ccccc2)/C(=O)O1 | x | -2 | -18
42 | COc1ccccc1/C=C/C=C1N=C(/C=C/c2ccc(Cl)cc2)OC/1=O | 0 | x | x
43 | C[C@@H]1CN([C@@H](C)CO)S(=O)(=O)c2ccc(C#Cc3ccncc3)cc2O[C@H]1CN(C)S(=O)(=O)c1ccc(F)cc1 | -1 | 2 | -66
44 | C[C@H]1CN([C@@H](C)CO)S(=O)(=O)c2ccc(C#Cc3ccncc3)cc2O[C@H]1CN(C)S(=O)(=O)c1ccc(F)cc1 | -6 | -3 | -27

nr | SIRT5 block | UUG fidelity | E-sel inducer
31 | 17* | x | x
32 | -3 | x | x
33 | -2 | -16 | 0
34 | 15* | 2 | 0
35 | x | x | 0
36 | -1 | 14 | 1
37 | 27* | -12 | 3
38 | x | -13 | 0
39 | 20* | x | 0
40 | -1 | 67 | 0
41 | 21* | x | x
42 | x | -21 | x
43 | 2 | -6 | x
44 | 7 | -20 | x
